Biological target: His-tagged, recombinant importin β (UniProt Q14974)
Assay: pull-down; preformed GST-IBB-importin β complexes on glutathione beads, RanQ69L-GTP (15 μM) added afterwards; bound and eluted fractions by semi-quantitative immunoblotting (IRDye secondary antibody, Odyssey)

- percent of the preformed importin β-KPNA2 IBB complexes dissociated by RanGTP: 60%
- percent of the preformed importin β-KPNA7 IBB complexes dissociated by RanGTP: 3%
Substance: His-tagged RanQ69L protein (preloaded with GTP) (from UniProt P62826 1-216) (enzyme; other documents disagree on this pair)
